Measured values reported in PubChem BioAssay AID2025 (NMMLSC, 2009).
The list shows a part of the results, in another mix than the full data. Some salts or complexes appear as unconnected parts, following the source record. Calls of active or inactive are those of the source.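 The calls were made as follows: active = percent response vs DMSO below 50%; inconclusive = fewer than 70 events counted for the yeast strain; inactive = the rest.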

Assay: RPL19A-GFP expression modulators in yeast, primary screen, cell-based, S. cerevisiae, multiplex flow cytometry, MLPCN (AID 2025);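 also: median channel GFP fluorescence of the barcoded RPL19A-GFP strain; ratio of sample median GFP to plate DMSO average so 100% = DMSO; lower means less RPL19A-GFP as with rapamycin TOR inhibition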
Details: S. cerevisiae RPL19A-GFP strain, 3 h, at 10 µM, active compounds read low

| Structure (SMILES) | percent response vs DMSO |
| --- | --- |
| COc1ccc(OP(C)(=O)Nc2ccccn2)cc1 (stereo not drawn) | inactive: 102% |
| CN(C)CCOC(=O)C(O)(c1ccccc1)C1CCCC1 (stereo not drawn) | inactive: 102% |
| COc1ccccc1OP(C)(=O)Nc1ccc(Br)cc1 (stereo not drawn) | inactive: 108% |
| COc1ccccc1OP(C)(=O)Nc1ccc(C)cc1C (stereo not drawn) | inactive: 104% |
| CP(=O)(Nc1ccccn1)Oc1ccccc1 (stereo not drawn) | inactive: 108% |
| CCc1ccc(OP(C)(=O)O)cc1 | inactive: 96.4% |
| Cc1c(NP(C)(=O)Oc2ccc(C(C)C)cc2)c(=O)n(-c2ccccc2)n1C (stereo not drawn) | inactive: 101% |
| O=[N+]([O-])c1cc([N+](=O)[O-])c(Nc2ccccn2)c([N+](=O)[O-])c1 | inactive: 92.8% |
| COc1ccccc1OP(C)(=O)Nc1ccc(C)c(C)c1 (stereo not drawn) | inactive: 90.5% |
| COc1ccc(OP(C)(=O)Nc2ccccc2Br)cc1 (stereo not drawn) | inactive: 101% |
| Cc1cc(C)cc(OP(C)(=O)Nc2cccc(C(F)(F)F)c2)c1 (stereo not drawn) | inactive: 96.5% |
| CP(=O)(Nc1ccc(Cl)cc1Cl)Oc1ccccc1 (stereo not drawn) | inactive: 98.7% |
| CP(=O)(OCCOc1ccccc1)OCCOc1ccccc1 | inactive: 96.5% |
| Cc1nc2ccc3ccccc3c2o1.O=[N+]([O-])c1cc([N+](=O)[O-])c(O)c([N+](=O)[O-])c1 | inactive: 100% |
| CCOC(=O)c1ccc(NP(C)(=O)Oc2ccc(Cl)cc2)cc1 (stereo not drawn) | inactive: 92% |
| CP(=O)(OC12CC3CC(CC(C3)C1)C2)OC12CC3CC(CC(C3)C1)C2 | inactive: 101% |
| Nc1ccc2c(ccc3cccnc32)n1.O=[N+]([O-])c1cc([N+](=O)[O-])c(O)c([N+](=O)[O-])c1 | inactive: 100% |
| O=C(OCCCN1CCCC1)C(O)(c1ccccc1)C1CCCCC1 (stereo not drawn) | inactive: 99.2% |
| COc1ccccc1OP(C)(=O)Nc1c(C)n(C)n(-c2ccccc2)c1=O (stereo not drawn) | inactive: 96.6% |
| CCc1ccc(OP(C)(=O)Nc2cccnc2)cc1 (stereo not drawn) | inactive: 111% |
| CP(=O)(Oc1ccccc1)N1CCOC1=O (stereo not drawn) | inactive: 99.9% |
| COc1ccc(OP(C)(=O)Nc2ccc(Br)cc2)cc1 (stereo not drawn) | inactive: 89.8% |

| Structure (SMILES) | percent response vs DMSO |
| --- | --- |
| CCN(CC)CC(O)COC(=O)C(O)(c1ccccc1)C1CCCCC1 (stereo not drawn) | inactive: 99.1% |
| CN(C)C(=O)c1c([N+](=O)[O-])cc([N+](=O)[O-])cc1[N+](=O)[O-] | inactive: 92% |
| COc1ccccc1OP(C)(=O)Nc1ccccc1Br (stereo not drawn) | inactive: 99.5% |
| CC(C)(C)c1ccc(OP(C)(=O)O)cc1 | inactive: 97.8% |
| CP(=O)(Nc1ccc(Cl)cc1)Oc1ccc(F)cc1 (stereo not drawn) | inactive: 105% |
| CCOP(C)(=S)SCC(=O)NC(C)(CC)C(=O)O (stereo not drawn) | inactive: 103% |
| CP(=O)(Nc1ccc(SC(F)(F)F)cc1)Oc1ccc(F)cc1 (stereo not drawn) | inactive: 103% |
| CP(=O)(Nc1ccc2c(c1)OCCO2)Oc1ccccc1 (stereo not drawn) | inactive: 92.7% |
| CN(C)CCOC(=O)C(O)(c1ccccc1)C1CCCCC1 (stereo not drawn) | inactive: 104% |
| COc1ccc(NP(C)(=O)Oc2ccccc2OC)cc1 (stereo not drawn) | inactive: 100% |
| COc1ccc(OP(C)(=O)Nc2cccc(Br)c2)cc1 (stereo not drawn) | inactive: 96.1% |
| O=[N+]([O-])c1ccc(OP2(=O)COCCO2)cc1 (stereo not drawn) | inactive: 100% |
| O=[N+]([O-])c1cc([N+](=O)[O-])c(NCC2CCS(=O)(=O)C2)c([N+](=O)[O-])c1 (stereo not drawn) | inactive: 102% |
| CCOC(=O)c1ccc(NP(C)(=O)Oc2ccc(F)cc2)cc1 (stereo not drawn) | inactive: 104% |
| COc1ccc(OP(C)(=O)Nc2ccc(SC(F)(F)F)cc2)cc1 (stereo not drawn) | inactive: 99% |
| CP(=O)(Nc1ccccc1)Oc1ccc(F)cc1 (stereo not drawn) | inactive: 100% |
| CCCCCOc1ccc(NP(C)(=O)Oc2ccc(Cl)cc2Cl)cc1 (stereo not drawn) | inactive: 95.7% |
| O=[N+]([O-])c1cc([N+](=O)[O-])c(OC2CCCCC2O)c([N+](=O)[O-])c1 (stereo not drawn) | inactive: 103% |
| CCN(CC)CCCOC(=O)C(O)(c1ccccc1)C1CCCCC1 (stereo not drawn) | inactive: 105% |
| CP(=O)(Nc1ccccc1F)Oc1ccccc1 (stereo not drawn) | inactive: 119% |
| CC(C)c1ccc(OP(C)(=O)Nc2ccc(SC(F)(F)F)cc2)cc1 (stereo not drawn) | inactive: 106% |
| COc1ccc2c(c1O)-c1c(O)c(OC)cc3c1[C@H](C2)[N+](C)(C)CC3.O=[N+]([O-])c1cc([N+](=O)[O-])c([O-])c([N+](=O)[O-])c1[O-] | inactive: 104% |

| Structure (SMILES) | percent response vs DMSO |
| --- | --- |
| O=C(OC1CN2CCC1CC2)c1ccc([N+](=O)[O-])cc1 (stereo not drawn) | inactive: 97.8% |
| O=C(OCCN1CCN(CCOCc2ccccc2)CC1)C(O)(c1ccccc1)c1ccccc1 | inactive: 101% |
| CCOC(=O)c1ccc(NP(C)(=O)Oc2cc(C)cc(C)c2)cc1 (stereo not drawn) | inactive: 102% |
| Cc1cc(C)cc(OP(C)(=O)Nc2ccc(C)cc2C)c1 (stereo not drawn) | inactive: 94.5% |
| COc1ccccc1OP(C)(=O)Nc1cccc(Br)c1 (stereo not drawn) | inactive: 99.1% |
| Cc1ccc(C)c(NP(C)(=O)Oc2ccccc2)c1 (stereo not drawn) | inactive: 96% |
| Cc1cc(C)cc(OP(C)(=O)Nc2ccccn2)c1 (stereo not drawn) | inactive: 94.3% |
| CP(=O)(Nc1cccc(Br)c1)Oc1ccccc1 (stereo not drawn) | inactive: 98.8% |
| O=C(O)c1cccc(Nc2c([N+](=O)[O-])cc([N+](=O)[O-])cc2[N+](=O)[O-])c1 | inactive: 98.5% |
| CC1=NCCc2c1[nH]c1ccccc21.O=[N+]([O-])c1cc([N+](=O)[O-])c(O)c([N+](=O)[O-])c1 | inactive: 90.1% |
| CCOC(=O)C(CC)C1=NC(C)(C)Cc2ccccc21.O=[N+]([O-])c1cc([N+](=O)[O-])c(O)c([N+](=O)[O-])c1 (stereo not drawn) | inactive: 99.4% |
| CC1=C2N=C(C=C3N=C(C(C)=C4[N-][C@@](C)([C@@H]5N=C1[C@](C)(CCC(=O)NC[C@@H](C)OP(=O)([O-])O[C@H]1[C@@H](O)[C@@H](n6cnc7cc(C)c(C)cc76)O[C@@H]1CO)[C@H]5CC(N)=O)[C@@](C)(CC(N)=O)[C@@H]4CCC(N)=O)[C@@](C)(CC(N)=O)[C@@H]3CCC(N)=O)C(C)(C)[C@@H]2CCC(N)=O.[C-]#N.[Co+3] | inactive: 89.2% |
| O=[N+]([O-])c1cc([N+](=O)[O-])c(Nc2nnnn2CCO)c([N+](=O)[O-])c1 | inactive: 101% |
| CCCOc1ccc(NP(C)(=O)Oc2ccc(Cl)cc2)cc1 (stereo not drawn) | inactive: 103% |
| CP(=O)(Nc1ccc(SC(F)(F)F)cc1)Oc1ccccc1 (stereo not drawn) | inactive: 101% |
| COc1ccccc1OP(C)(=O)Nc1c(C)cccc1C (stereo not drawn) | inactive: 98% |
| CN1CCCCC1COC(=O)C1(O)c2ccccc2CCc2ccccc21 (stereo not drawn) | inactive: 101% |
| O=[N+]([O-])c1cc([N+](=O)[O-])c(-n2nnc3ccccc32)c([N+](=O)[O-])c1 | inactive: 91.6% |
| Cc1nc2ccc3ccccc3c2s1.O=[N+]([O-])c1cc([N+](=O)[O-])c(O)c([N+](=O)[O-])c1 | inactive: 96.6% |
| O=[N+]([O-])c1cc([N+](=O)[O-])c(-c2cnn(-c3ccccc3)c2)c([N+](=O)[O-])c1 | inactive: 95.3% |
| Cc1cc(C)cc(OP(C)(=O)Nc2ccc(SC(F)(F)F)cc2)c1 (stereo not drawn) | inactive: 108% |
| CP(=O)(NC(=O)Nc1ccccc1)Oc1ccccc1 (stereo not drawn) | inactive: 94% |

| Structure (SMILES) | percent response vs DMSO |
| --- | --- |
| CCc1ccc(OP(C)(=O)N2CCN(c3ccc([N+](=O)[O-])cc3)CC2)cc1 (stereo not drawn) | inactive: 101% |
| CP(=O)(Oc1ccccc1)OC(c1ccccc1)C(F)(F)F (stereo not drawn) | inactive: 97.7% |
| Cc1cccc(C)c1OP(C)(=O)Nc1ccc(SC(F)(F)F)cc1 (stereo not drawn) | inactive: 97.1% |
| CP(=O)(Nc1ccc(SC(F)(F)F)cc1)Oc1ccc(Cl)cc1 (stereo not drawn) | inactive: 96.4% |
| CP(=O)(Nc1ccccn1)Oc1ccc(Cl)cc1 (stereo not drawn) | inactive: 90.5% |
| CCOC(=O)c1ccc(NP(C)(=O)Oc2ccc(OC)cc2)cc1 (stereo not drawn) | inactive: 102% |
| O=[N+]([O-])c1cc([N+](=O)[O-])c(O)c([N+](=O)[O-])c1.c1ccc(Oc2ccncc2)cc1 | inactive: 95.3% |
| CCOP(C)(=S)SCC(=O)NC(C)C(=O)O (stereo not drawn) | inactive: 106% |
| CP(=O)(Nc1ccccc1Br)Oc1ccccc1 (stereo not drawn) | inactive: 98% |
| COc1ccccc1OP(C)(=O)Nc1ccccc1 (stereo not drawn) | inactive: 97.7% |
| CP(=S)(Nn1cnnc1)Oc1ccccc1 (stereo not drawn) | inactive: 98.8% |
| O=[N+]([O-])c1ccc2c(c1)C=Nc1ccccc1O2 | inactive: 107% |
| Cc1cccc(C)c1OP(C)(N)=O (stereo not drawn) | inactive: 105% |
| CC(C)(C)c1ccc(OP(C)(=O)Nc2ccc(SC(F)(F)F)cc2)cc1 (stereo not drawn) | inactive: 102% |
| O=[N+]([O-])c1cc([N+](=O)[O-])c(Nc2cccnc2)c([N+](=O)[O-])c1 | inactive: 95% |
| Cc1cc(C)cc(OP(C)(N)=O)c1 (stereo not drawn) | inactive: 104% |
| COc1ccc(OP(C)(=O)Nc2cccc(F)c2)cc1 (stereo not drawn) | inactive: 99.7% |
| COc1ccccc1OP(C)(=O)Nc1cc(Cl)ccc1C (stereo not drawn) | inactive: 102% |
| Cc1ccc(NP(C)(=O)Oc2ccccc2)c(C)c1 (stereo not drawn) | inactive: 93.8% |
| COc1ccccc1OP(C)(=O)Nc1ccc(C)cc1 (stereo not drawn) | inactive: 88.8% |
| CCOC(=O)c1ccc(NP(C)(=O)Oc2ccccc2)cc1 (stereo not drawn) | inactive: 102% |
| CCN(CC)CCCOC(=O)C(O)(c1ccccc1)c1ccccc1 | inactive: 101% |
